From patent publication US9730926B2, “Combination therapy using bispecific anti-c-Met/anti-EGFR antibody and c-Src inhibitor” (Samsung Electronics Co., Ltd., priority 2014, dated 2017)

Test system: K-Ras mutated colorectal cancer cell line (Lovo cell line)
Assay: Cell proliferation assay (Cell Counting Kit-8), Lovo cell line
Type: cell-based
Conditions: c-Src inhibitor concentration varied, ME22S fixed at 5 μg/ml, FIG. 6, FIG. 7
Procedure: To examine the cell proliferation inhibition effect depending on the amount of a bispecific anti-c-Met/anti-EGFR antibody, the experiment was carried out by varying the amount of the treated bispecific anti-c-Met/anti-EGFR antibody with fixing the amount of dasatini as 30 nM.
This experiment was conducted referring to the experiment of the cell proliferation test depending on the amount of the antibody as described above, except the amount of the treated antibody and the c-Src inhibitor.

## Cc1nc(Nc2ncc(C(=O)Nc3c(C)cccc3Cl)s2)cc(N2CCN(CCO)CC2)n1 [dasatinib, N-(2-chloro-6-methylphenyl)-2-[[6-[4-(2-hydroxyethyl)-1-piperazinyl]-2-methyl-4-pyrimidinyl]amino]-5-thiazole carboxamide monohydrate, reference compound]
  dose dependence of the synergistic effect by co-treatment with ME22S: generally dose-dependent for the c-Src inhibitor
